Residue numbers refer to the chain shown, from its start. In names and notes the source's numbering stands. Where two headings read alike, the source gives them in different places.
B1: TNT81: one of the "humanized RFB4 variants" that bind human CD22; "higher affinity (~0.1 nM) than RFB4" (antibody)
heavy: EVQLVESGGGLVQPGGSLRLSCAASGFAFSIYDMSWVRQAPGKGLEWVAYISSGGGTTYYPDTVKGRFTISRDNSKNTLYLQMNSLRAEDTAVYYCARHSGYGTHWGVLFAYWGRGTLVTVSSASTKGPSVFPLAPSSKSTSGGTAALGCLVKDYFPEPVTVSWNSGALTSGVHTFPAVLQSSGLYSLSSVVTVPSSSLGTQTYICNVNHKPSNTKVDKKVEPKSCDKTHTCPPCPAPEAAGAPSVFLFPPKPKDTLMISRTPEVTCVVVDVSHEDPEVKFNWYVDGVEVHNAKTKPREEQYNSTYRVVSVLTVLHQDWLNGKEYKCKVSNKALPAPIEKTISKAKGQPREPQVYTLPPSREEMTKNQVSLTCLVKGFYPSDIAVEWESNGQPENNYKTTPPVLDSDGSFFLYSKLTVDKSRWQQGNVFSCSVMHEALHNHYTQKSLSLSPGRPQGFGPP
light: EIVLTQSPATLSLSPGERATLSCRASQDIHGYLNWYQQKPGQAPRLLIYYTSILHSGIPARFSGSGPGTDFTLTISSLEPEDFAVYYCQQGNTLPWTFGGGTKLEIKRTVAAPSVFIFPPSDEQLKSGTASVVCLLNNFYPREAKVQWKVDNALQSGNSQESVTEQDSKDSTYSLSSTLTLSKADYEKHKVYACEVTHQGLSSPVTKSFNRGEC
B2: TNT84: one of the "humanized RFB4 variants" that bind human CD22; "affinities equivalent to RFB4" (antibody)
heavy: QVQLQESGPGLVKPSDTLSLTCTVSGFAFSIYDMSWIRQPPGKGLEWIAYISSGGGTTYYNPSLKSRVTISVDTSKNQFSLKLSSVTAADTAVYYCARHSGYGTHWGVLFAYWGRGTLVTVSSASTKGPSVFPLAPSSKSTSGGTAALGCLVKDYFPEPVTVSWNSGALTSGVHTFPAVLQSSGLYSLSSVVTVPSSSLGTQTYICNVNHKPSNTKVDKKVEPKSCDKTHTCPPCPAPEAAGAPSVFLFPPKPKDTLMISRTPEVTCVVVDVSHEDPEVKFNWYVDGVEVHNAKTKPREEQYNSTYRVVSVLTVLHQDWLNGKEYKCKVSNKALPAPIEKTISKAKGQPREPQVYTLPPSREEMTKNQVSLTCLVKGFYPSDIAVEWESNGQPENNYKTTPPVLDSDGSFFLYSKLTVDKSRWQQGNVFSCSVMHEALHNHYTQKSLSLSPGRPQGFGPP
light: B1 light
B3: TNT76 (antibody)
heavy: B2 heavy
light: DIQMTQSPSSVSASVGDRVTITCRASQDIHGYLAWYQQKPGKAPKLLIYYTSSLQSGVPSRFSGSGSGTDFTLTISSLQPEDFATYYCQQGNTLPWTFGQGTKLEIKRTVAAPSVFIFPPSDEQLKSGTASVVCLLNNFYPREAKVQWKVDNALQSGNSQESVTEQDSKDSTYSLSSTLTLSKADYEKHKVYACEVTHQGLSSPVTKSFNRGEC
B4: TNT87 (antibody)
heavy: EVQLVESGGGLVQPGGSLRLSCAASGFTFSSYEMNWVRQAPGKGLEWVSYISSSGSTIYYADSVKGRFTISRDNAKNSLYLQMNSLRAEDTAVYYCARHSGYGTHWGVLFAYWGRGTLVTVSSASTKGPSVFPLAPSSKSTSGGTAALGCLVKDYFPEPVTVSWNSGALTSGVHTFPAVLQSSGLYSLSSVVTVPSSSLGTQTYICNVNHKPSNTKVDKKVEPKSCDKTHTCPPCPAPEAAGAPSVFLFPPKPKDTLMISRTPEVTCVVVDVSHEDPEVKFNWYVDGVEVHNAKTKPREEQYNSTYRVVSVLTVLHQDWLNGKEYKCKVSNKALPAPIEKTISKAKGQPREPQVYTLPPSREEMTKNQVSLTCLVKGFYPSDIAVEWESNGQPENNYKTTPPVLDSDGSFFLYSKLTVDKSRWQQGNVFSCSVMHEALHNHYTQKSLSLSPGRPQGFGPP
light: DIVMTQTPLSLSVTPGQPASISCRASQDIHGYLNWYQQKPGQSPQLLIYYTSILHSGVPDRFSGSGSGTDFTLKISRVEAEDVGVYFCQQGNTLPWTFGGGTKLEIKRTVAAPSVFIFPPSDEQLKSGTASVVCLLNNFYPREAKVQWKVDNALQSGNSQESVTEQDSKDSTYSLSSTLTLSKADYEKHKVYACEVTHQGLSSPVTKSFNRGEC
B5: TNT70 DAR1: humanized anti-CD22 antibody TNT70 "conjugated with CpG (SEQ ID NO: 3) with a DAR1 configuration" (conjugate)
heavy: B1 heavy with E1Q, V5L, L11V, S35N, A49S, Y50A, P61A, T63S, S75A, T78S
light: B3 light with V11L, A34N, S53I, Q55H, Y87F
B6: N92P: humanized anti-CD22 antibody variant: CDR-L3 N92 "mutated in the RL1 VH domain" to P; compared to TNT70 (antibody, V domains shown)
VH: QVQLLESGGGVVQPGGSLRLSCAASGFAFSIYDMNWVRQAPGKGLEWVSAISSGGGTTYYADSVKGRFTISRDNAKNSLYLQMNSLRAEDTAVYYCARHSGYGTHWGVLFAYWGRGTLVTVSS
VL: DIQMTQSPSSLSASVGDRVTITCRASQDIHGYLNWYQQKPGKAPKLLIYYTSILHSGVPSRFSGSGSGTDFTLTISSLQPEDFATYFCQQGPTLPWTFGQGTKLEIK
B7: N92T: humanized anti-CD22 antibody variant: CDR-L3 N92 "mutated in the RL1 VH domain" to T; compared to TNT70 (antibody, V domains shown)
VH: B6 VH
VL: B6 VL with P92T
B8: N92V: humanized anti-CD22 antibody variant: CDR-L3 N92 "mutated in the RL1 VH domain" to V; compared to TNT70 (antibody, V domains shown)
VH: B6 VH
VL: B6 VL with P92V
B9: N92W: humanized anti-CD22 antibody variant: CDR-L3 N92 "mutated in the RL1 VH domain" to W; compared to TNT70 (antibody, V domains shown)
VH: B6 VH
VL: B6 VL with P92W
B10: N92C: humanized anti-CD22 antibody variant: CDR-L3 N92 "mutated in the RL1 VH domain" to C; compared to TNT70 (antibody, V domains shown)
VH: B6 VH
VL: B6 VL with P92C

Columns and labels:
CD22 [1] = biological target: T1, CD22 (Homo sapiens, UniProt P20273); experiment: SPR binding of humanized anti-CD22 antibodies (mAb supernatant) to human CD22; parameters: human CD22 (d1 to d7 domain according to NP_001762.2); details: for ka / kd: SPR, mAb supernatant captured on protein A, human CD22-gly
Protocol: Binding of humanized anti-CD22 antibodies to human CD22 was measured by surface plasmon resonance (SPR). For assessment of binding by SPR, biotinylated protein A (15 μg/mL) was immobilized to the surface of an NLC chip. 30 μL of mAb supernatant was added to 150 μL of PBS-T and captured over the protein A surface. […]

CD22 [2] = biological target: T1, CD22; format: binding; parameters: human CD22 (d1 to d7 domain according to NP_001762.2)
CD22 [3] = biological target: T1, CD22; experiment: SPR binding of RL1 N92 substitution variants to CD22; details: SPR, N92 variants of RL1 VL domain vs TNT70
Protocol: Humanized anti-CD22 antibodies described in Example 5 were next analyzed for potential sequence liabilities. A potential Asn deamination site is present in the CDR-L3 ([…]) of all humanized variants (FIG. 8B). This site was mutated in the RL1 VH domain to create antibody variants, which were tested for the impact of mutation on binding affinity to CD22. For engineering variants, […] was mutated to all possible amino acids. […] Binding properties of the mutants are summarized below and in FIGS. 15C-15F. All of the […] substitutions looked to be tolerable with respect to binding affinity to CD22.

Row | Molecule | ka (CD22 [1]) | kd (CD22 [1]) | ka (CD22 [3]) | kd (CD22 [3]) | further results
1 | B1 | 169000 M⁻¹ s⁻¹ | 0.000117 s⁻¹ | – | – | Kd (CD22 [1]; human CD22 d1 to d7 domain, read-out: affinity of binding to human CD22): ~0.1 nM
2 | B2 | 271000 M⁻¹ s⁻¹ | 0.000667 s⁻¹ | – | – | affinity compared with RFB4 (CD22 [1]; human CD22): equivalent to RFB4
3 | B3 | 199000 M⁻¹ s⁻¹ | 0.00601 s⁻¹ | – | – | –
4 | B4 | 250000 M⁻¹ s⁻¹ | 0.00171 s⁻¹ | – | – | –
5 | B5 | – | – | – | – | ka (CD22 [2]): 125000 M⁻¹ s⁻¹; kd (CD22 [2]): 6.29e-05 s⁻¹
6 | B6 | – | – | 112000 M⁻¹ s⁻¹ | 7.24e-05 s⁻¹ | –
7 | B7 | – | – | 149000 M⁻¹ s⁻¹ | 7.85e-05 s⁻¹ | –
8 | B8 | – | – | 145000 M⁻¹ s⁻¹ | 8.32e-05 s⁻¹ | –
9 | B9 | – | – | 143000 M⁻¹ s⁻¹ | 7.87e-05 s⁻¹ | –
10 | B10 | – | – | 111000 M⁻¹ s⁻¹ | 7.13e-05 s⁻¹ | –
